AlphaSeq binding of Ab-14 light chain variants to a spike HR2 peptide

Values reported by Engelhart et al. 2022, doi:10.1038/s41597-022-01779-4 (FLAb copy).

Target: peptide PDVDLGDISGINAS, taken from heptad repeat 2 (HR2) of SARS-CoV-2 spike.

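The starting antibody came from a phage panning campaign against this peptide. Variants in AAYL50 differ from the parent at up to three CDR positions; double and triple changes were sampled at random. The scFvs were displayed on barcoded MATa yeast, the peptide on MATalpha yeast. Pairs that bind mate more often; barcode pairs of the diploids are counted by sequencing. The ratio of observed to expected reads was calibrated, replicate by replicate, on BCL2-family standards whose Kd was known from biolayer interferometry. There are three technical replicates.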

Each scFv is VH, a 15-residue (Gly4Ser)3 linker, VL, as in the parent Ab-14, and differs from it in the CDRs of the light chain only.
VH: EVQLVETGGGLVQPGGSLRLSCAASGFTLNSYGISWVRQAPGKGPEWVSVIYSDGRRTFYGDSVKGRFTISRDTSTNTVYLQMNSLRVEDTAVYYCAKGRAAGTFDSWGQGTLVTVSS
VL: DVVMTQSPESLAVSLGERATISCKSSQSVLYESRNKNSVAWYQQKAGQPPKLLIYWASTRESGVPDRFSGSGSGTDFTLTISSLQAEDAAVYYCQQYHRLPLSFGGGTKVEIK

Positions count from residue 1 of the parent VL; L30A puts A in place of L.
Every variant below is changed at L30 of the VL (sequential numbering).
The Kd shown is the geometric mean over detected replicates; a lower Kd is a better binder.
"not detected" means that the variant was in the library but no mating with the target was seen in any replicate; the authors take this as a sign of poor binding, and no number exists.
Nonspecific signal, from three strains lacking the peptide, appeared in 18% of pairings of library AAYL50, centred on 15 µM (5% of these signals below 970 nM); values are not corrected for it.
Parent in this assay: reference entry 4.4 nM, copy in this library 48 nM.

changes	Kd (apparent)	replicates with signal
L30A+R60K+L100N	3.8 µM	3 of 3
L30F+S38C+L100V	340 µM	1 of 3
L30R+E32C+R99E	4.0 µM	3 of 3
L30N+T59Q+Q95W	4.4 µM	1 of 3
L30T+N37V+L100G	21 µM	2 of 3
L30F+R60F+H98N	not detected	0 of 3
L30C+K36C+A57V	26 nM	3 of 3
L30P+Y31V+E32K	520 nM	2 of 3
L30E+N35H+R60F	not detected	0 of 3
L30V	14 nM	3 of 3
L30H+S33W+V39N	not detected	0 of 3
L30S+A40I	not detected	0 of 3
L30D+N35G+N37K	38 nM	3 of 3
L30H+S38G	300 nM	2 of 3
S26A+L30W+P101T	400 nM	2 of 3
S28L+L30D+Q96I	480 nM	2 of 3
L30I+Y97V+L102W	7.4 nM	3 of 3
L30N+R99D+L102G	38 µM	1 of 3
L30K+Y31C+R34A	54 nM	3 of 3
L30V+A40W+A57C	14 µM	1 of 3
S28I+L30W+S62V	21 nM	3 of 3
L30S+S103N	16 nM	3 of 3
L30E+W56F+E61I	not detected	0 of 3
L30A+S62A+L100N	not detected	0 of 3
S25G+L30D+R34W	1.3 µM	1 of 3
L30T+V39L+S103A	22 nM	3 of 3
Q27G+S28H+L30F	not detected	0 of 3
S25Q+L30A	4.7 nM	3 of 3
L30A+E32G+S33L	6.0 nM	3 of 3
L30Y+Y97D+H98F	180 nM	3 of 3
L30T+R60F+Q96M	not detected	0 of 3
L30S+A57Q+L102S	170 nM	1 of 3
V29L+L30K+Q95Y	not detected	0 of 3
V29N+L30V+A40V	250 µM	1 of 3
L30Q+A40R+T59R	not detected	0 of 3
L30N+S38Q	240 nM	3 of 3
S26L+L30A	18 nM	3 of 3
L30N+E32A+A57E	73 nM	3 of 3
S26I+L30S+R99F	210 nM	3 of 3
S28H+L30N+E32R	not detected	0 of 3
L30F+R34Y+W56T	98 nM	3 of 3
Q27E+L30E+V39S	11 µM	1 of 3
S26Q+L30T+N37K	53 µM	1 of 3
S26T+L30R+L100S	80 nM	3 of 3
L30P+S62P+S103A	3.7 nM	3 of 3
S25I+L30H+H98F	6.2 nM	3 of 3
K24P+L30R+T59W	not detected	0 of 3
L30Q+Q96Y+R99N	not detected	0 of 3
L30T+S33P+H98N	7.6 nM	3 of 3
K24W+L30V+S38D	not detected	0 of 3
L30F+Q95D	not detected	0 of 3
V29P+L30G+N37G	30 nM	3 of 3
L30R+A40S	not detected	0 of 3
S26K+L30A	11 nM	3 of 3
K24W+S26T+L30P	160 nM	2 of 3
L30V+P101H+S103W	97 µM	1 of 3
L30E	4.7 nM	3 of 3
L30E+N35H+V39E	11 µM	1 of 3
L30R+S38P+S62F	not detected	0 of 3
K24F+L30Q	10 nM	3 of 3
Q27F+L30F+A57F	not detected	0 of 3
L30W+K36P+Q95Y	not detected	0 of 3
L30A+P101L+L102V	8.3 µM	3 of 3
L30Y+Y31N+A57Q	41 nM	3 of 3
L30W+K36S+Y97I	8.3 µM	1 of 3
L30Y+Y31P+T59F	29 nM	3 of 3
S25I+L30I+L100R	6.6 µM	2 of 3
L30A+Y31F+R60N	1.1 µM	1 of 3
S26E+Q27A+L30F	23 nM	3 of 3
L30G+T59A+S103R	65 nM	3 of 3
S26L+V29T+L30I	7.4 nM	3 of 3
L30H+Y31Q+N35E	3.7 nM	3 of 3
L30C+S58N+Q95N	2.0 µM	3 of 3
L30Q+S58M+S103M	270 nM	2 of 3
L30Q+W56I+S58Q	not detected	0 of 3
L30R+S38D+L102Q	not detected	0 of 3

A selection of 5 entries from above:

changes	Kd (apparent)	replicates with signal
L30R+E32C+R99E	4.0 µM	3 of 3
L30V+P101H+S103W	97 µM	1 of 3
S26I+L30S+R99F	210 nM	3 of 3
L30A+S62A+L100N	not detected	0 of 3
L30H+S38G	300 nM	2 of 3